Laboratory results taken from patent US20140323581A1, “TRANSCRIPTOME WIRING ANALYSIS IN PARKINSON'S DISEASE AND USES THEREOF” (THE TRUSTEES OF COLUMBIA UNIVERSITY IN THE CITY OF NEW YORK, priority 2011, published 2014).
Entries after “also recorded” stand apart in the source; their conditions may differ.

How the values were obtained:
[1] = system: aSynL/total ratio; test: aSynL/total ratio in brain regions of MPTP-treated mice (reanalysis of GEO GSE7707); type: in vivo, mouse; conditions: 30 mg/kg i.p. daily for 5 days vs saline
[2] = system: aSynL/total ratio; test: aSynL/total ratio in brain of MPTP-treated macaques (reanalysis of GEO GSE4550); type: in vivo, macaque; conditions: 0.2 mg/kg i.p. daily for 6 or 12 days vs saline

Compound	aSynL/total ratio (Affymetrix probesets 1418493_a_at and 1436853_a_t) [1]	aSynL/total ratio (Affymetrix probesets 204466_s_at and 211546_x_at) [2]
CN1CC=C(c2ccccc2)CC1 [MPTP, 1-methyl-4-phenyl-1,2,3,6-tetrahydropyridine]	increase; also recorded: Mitochondrial toxin increases aSynL: total ratio	Mitochondrial toxin increases aSynL: total ratio
CN1CC=C(c2ccccc2)CC1.Cl [MPTP hydrochloride]	–	increased
